According to PubChem BioAssay AID485349 (National Center for Advancing Translational Sciences (NCATS), 2010):
Hit rate of the full screen: of about 320,000 compounds, about 620 (0.19%) were called active. All entries are inconclusive by the source's own rule. Clear calls are listed elsewhere. Calls come from the whole dose curve; as a rule, active = well fitted activation curve with a large enough effect; inconclusive = small, poorly fitted or top-dose-only effect; inactive = no such curve, though single readings can be large or run the other way.

Experiment: qHTS Assay for Identifying a Potential Treatment of Ataxia-Telangiectasia; note: nearly all actives have a fitted effect of over 45% in size
Conditions: […] A-T fibroblasts, KAP-1 phosphorylation AlphaLISA; neocarzinostatin DNA damage 30 min before lysis
Excerpt: NIH Chemical Genomics Center [NCGC] NIH Molecular Libraries Probe Centers Network [MLPCN] MLPCN Grant: MH089030-01 Assay Submitter (PI): Wei Zheng and Yosef Shiloh Ataxia-telangiectasia (A-T) is a devastating and progressive disease for which, there is no cure. Although A-T is a multisystem disease, it is stereotyped characterized by its neurological symptoms such as truncal ataxia, due to cerebellar cortical degeneration of the Purkinje and granule cells. Other symptoms of A-T are telangiectasias (dilated blood vessels), primary immunodeficiency, marked sensitivity to ionizing radiation (IR), chromosomal instability and predisposition to cancer. The underlying genetic cause of A-T is null mutations in the ATM (A-T mutated) gene. ATM is a nuclear serine/threonine kinase that functions as a master regulator of the cellular responses to double strand breaks (DSBs) in the DNA. Upon activation by DSBs, ATM phosphorylates a plethora of down stream targets, including KAP-1 on Ser82452. […] To screen for small molecules that will compensate for the loss of ATM in cells derived from A-T patients, we monitored KAP-1 phosphorylation as a readout for ATM-like activity using an AlphaLISA assay.
qHTS Assay Protocol: Step,Parameter,Value,Description 1. […] Readout, EnVision, EnVision plate reader. […] EnVision protocol for 1536-well AlphaScreen read (30ms excitation, 100ms read), about 10 min/plate.
Potency is the fitted concentration of half-maximal effect.

Q: For `Cc1c2non([O-])c-2c(C)[n+](=O)[n+]1[O-]`, which Potency is on record?
A: inconclusive: 3550 nM

Q: With `O=[As](O)(c1cccs1)c1cccs1` as the compound, how does the Potency read?
A: inconclusive: 631 nM
